Sequences of proteins named here, by UniProt entry; tags and fusion partners are left off.
UniProt P27338, whole entry: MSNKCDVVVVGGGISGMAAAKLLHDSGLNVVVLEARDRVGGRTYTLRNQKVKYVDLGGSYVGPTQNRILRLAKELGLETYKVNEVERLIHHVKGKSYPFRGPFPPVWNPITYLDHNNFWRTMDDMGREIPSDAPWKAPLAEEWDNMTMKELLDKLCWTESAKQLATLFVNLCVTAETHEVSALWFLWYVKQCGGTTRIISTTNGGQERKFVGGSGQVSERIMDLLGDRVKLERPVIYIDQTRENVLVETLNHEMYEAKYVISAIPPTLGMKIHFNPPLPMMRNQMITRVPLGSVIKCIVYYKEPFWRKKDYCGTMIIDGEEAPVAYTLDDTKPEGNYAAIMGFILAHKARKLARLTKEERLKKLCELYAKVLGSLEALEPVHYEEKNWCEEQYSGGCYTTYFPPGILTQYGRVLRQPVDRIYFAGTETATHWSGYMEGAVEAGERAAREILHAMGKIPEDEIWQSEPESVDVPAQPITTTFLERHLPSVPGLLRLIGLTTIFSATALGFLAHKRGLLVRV

In ChEMBL document CHEMBL3769324, “Acetophenone derivatives: novel and potent small molecule inhibitors of monoamine oxidase B” (Medchemcomm, 2015):

target: Amine oxidase [flavin-containing] B (Homo sapiens, UniProt P27338); assay: Inhibition of human MAOB using p-tyramine as substrate after 15 mins by Amplex Red MAO assay

Row | IC50 [nM] | Structure (SMILES)
1 | 12.9 | CC(=O)c1ccc(OCc2ccc(F)cc2)cc1
2 | 16.5 | CC(=O)c1cccc(OCc2ccc(Br)cc2)c1
3 | 11.7 | CC(=O)c1cccc(OCc2ccc(Cl)cc2)c1
4 | 21.5 | CC(=O)c1ccc(OCc2cccc(Cl)c2)cc1
